Results reported in the supplement of paper PMC11246515.

Experiment: total protein half-life in vivo (active degradation + dilution); higher = more stable protein
[1] = E. coli NCM3722 delta-clpP, growth: N-lim chemostat, doubling time 6 h
[2] = E. coli NCM3722 delta-lon, growth: N-lim chemostat, doubling time 6 h
[3] = E. coli NCM3722 delta-smpB, growth: N-lim chemostat, doubling time 6 h
[4] = wild type E. coli NCM3722, growth: C-lim chemostat, doubling time 3 h
[5] = wild type E. coli NCM3722, growth: N-lim chemostat, doubling time 6 h
[6] = wild type E. coli NCM3722, growth: N-lim chemostat, doubling time 12 h
[7] = wild type E. coli NCM3722, growth: P-lim chemostat, doubling time 6 h
[8] = wild type E. coli NCM3722, growth: P-lim chemostat, doubling time 12 h
[9] = E. coli NCM3722 delta-clpP delta-lon delta-hslV, growth: N-lim chemostat, doubling time 6 h
[10] = E. coli NCM3722 delta-hslV, growth: N-lim chemostat, doubling time 6 h
[11] = wild type E. coli NCM3722, growth: C-lim chemostat, doubling time 6 h
[12] = wild type E. coli NCM3722, growth: C-lim chemostat, doubling time 12 h

Sequence: MANMFALILVIATLVTGILWCVDKFFFAPKRRERQAAAQAAAGDSLDKATLKKVAPKPGWLETGASVFPVLAIVLIVRSFIYEPFQIPSGSMMPTLLIGDFILVEKFAYGIKDPIYQKTLIETGHPKRGDIVVFKYPEDPKLDYIKRAVGLPGDKVTYDPVSKELTIQPGCSSGQACENALPVTYSNVEPSDFVQTFSRRNGGEATSGFFEVPKNETKENGIRLSERKETLGDVTHRILTVPIAQDQVGMYYQQPGQQLATWIVPPGQYFMMGDNRDNSADSRYWGFVPEANLVGRATAIWMSFDKQEGEWPTGLRLSRIGGIH
- total protein half-life in vivo [1]: 5.25 ± 0.62 h
- total protein half-life in vivo [2]: 7.28 ± 0.52 h
- total protein half-life in vivo [3]: 6.08 ± 0.34 h
- total protein half-life in vivo [4]: 3.41 ± 0.3 h
- total protein half-life in vivo [5]: 6.89 ± 0.1 h
- total protein half-life in vivo [6]: 13 ± 1.4 h
- total protein half-life in vivo [7]: 6.25 ± 0.67 h
- total protein half-life in vivo [8]: 12 ± 0.81 h

Sequence: MASRGVNKVILVGNLGQDPEVRYMPNGGAVANITLATSESWRDKATGEMKEQTEWHRVVLFGKLAEVASEYLRKGSQVYIEGQLRTRKWTDQSGQDRYTTEVVVNVGGTMQMLGGRQGGGAPAGGNIGGGQPQGGWGQPQQPQGGNQFSGGAQSRPQQSAPAAPSNEPPMDFDDDIPF [P0AGE0]
- total protein half-life in vivo [9]: 4.51 ± 0.58 h
- total protein half-life in vivo [1]: 3.47 ± 0.28 h
- total protein half-life in vivo [10]: 3.38 ± 0.094 h
- total protein half-life in vivo [2]: 3.82 ± 0.11 h
- total protein half-life in vivo [3]: 3.04 ± 0.22 h
- total protein half-life in vivo [4]: 3.13 ± 0.12 h
- total protein half-life in vivo [11]: 5.21 ± 0.29 h
- total protein half-life in vivo [12]: 8.536 ± 0.044 h
- total protein half-life in vivo [5]: 3.39 ± 0.037 h
- total protein half-life in vivo [6]: 4.79 ± 0.2 h
- total protein half-life in vivo [7]: 5.467 ± 0.0091 h
- total protein half-life in vivo [8]: 11.3 ± 0.81 h

Sequence: MIRLYPEQLRAQLNEGLRAAYLLLGNDPLLLQESQDAVRQVAAAQGFEEHHTFSIDPNTDWNAIFSLCQAMSLFASRQTLLLLLPENGPNAAINEQLLTLTGLLHDDLLLIVRGNKLSKAQENAAWFTALANRSVQVTCQTPEQAQLPRWVAARAKQLNLELDDAANQVLCYCYEGNLLALAQALERLSLLWPDGKLTLPRVEQAVNDAAHFTPFHWVDALLMGKSKRALHILQQLRLEGSEPVILLRTLQRELLLLVNLKRQSAHTPLRALFDKHRVWQNRRGMMGEALNRLSQTQLRQAVQLLTRTELTLKQDYGQSVWAELEGLSLLLCHKPLADVFIDG
- total protein half-life in vivo [9]: 4.96 ± 1.2 h
- total protein half-life in vivo [1]: 4.6 ± 0.22 h
- total protein half-life in vivo [10]: 5.68 ± 2.1 h
- total protein half-life in vivo [2]: 4.94 ± 0.21 h
- total protein half-life in vivo [3]: 4.09 ± 0.21 h
- total protein half-life in vivo [11]: 6.12 ± 2 h
- total protein half-life in vivo [12]: 8.3 ± 1.2 h
- total protein half-life in vivo [5]: 4.26 ± 0.46 h
- total protein half-life in vivo [6]: 7.46 ± 1.3 h
- total protein half-life in vivo [7]: 5.56 ± 1.2 h
- total protein half-life in vivo [8]: 9.19 ± 0.12 h

± gives the standard deviation of the averaged measurements.
